The target of this assay is Peptide deformylase (Escherichia coli) (UniProt P0A6K3). Briefly: Inhibition against Escherichia coli peptide deformylase.

With `CCCC[C@H](CCN(O)C=O)C(=O)N[C@H](C(=O)N(C)C)C(C)(C)C` [(R)-2-[2-(Formyl-hydroxy-amino)-ethyl]-hexanoic acid ((S)-1-dimethylcarbamoyl-2,2-dimethyl-propyl)-amide], the IC50 is 1 µM.

One may read the IC50 as the concentration needed to halve the response being measured.
